The record followed here is patent US5438056A (priority 1993, dated 1995).

Protein sequences, listed by entry. Tags and fused reporters are not part of them. Residues count along the entry.
UniProt P19835, 21-753 limits assumed: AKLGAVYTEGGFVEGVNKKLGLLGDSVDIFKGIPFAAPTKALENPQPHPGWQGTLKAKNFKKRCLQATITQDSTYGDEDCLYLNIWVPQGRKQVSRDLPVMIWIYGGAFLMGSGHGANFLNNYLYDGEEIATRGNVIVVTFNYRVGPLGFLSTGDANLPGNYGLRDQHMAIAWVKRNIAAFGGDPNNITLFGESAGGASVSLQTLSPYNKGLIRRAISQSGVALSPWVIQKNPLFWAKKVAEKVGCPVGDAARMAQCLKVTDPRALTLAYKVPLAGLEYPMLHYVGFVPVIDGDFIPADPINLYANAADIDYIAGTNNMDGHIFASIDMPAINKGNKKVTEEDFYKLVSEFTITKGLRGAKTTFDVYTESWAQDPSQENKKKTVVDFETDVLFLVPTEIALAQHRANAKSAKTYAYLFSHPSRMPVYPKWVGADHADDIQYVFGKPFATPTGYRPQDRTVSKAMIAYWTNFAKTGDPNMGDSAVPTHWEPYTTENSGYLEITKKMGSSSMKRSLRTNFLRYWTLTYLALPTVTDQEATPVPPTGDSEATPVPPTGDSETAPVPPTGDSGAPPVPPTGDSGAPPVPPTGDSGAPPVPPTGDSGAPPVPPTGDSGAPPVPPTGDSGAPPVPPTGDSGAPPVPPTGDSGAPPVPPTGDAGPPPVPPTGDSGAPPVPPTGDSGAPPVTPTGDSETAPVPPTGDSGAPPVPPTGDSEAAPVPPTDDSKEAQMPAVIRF

In this assay the target is cholesterol ester hydrolase (Homo sapiens, UniProt P19835). The experiment in a line: IC50 against CEH (cholesterol ester hydrolase), in vitro. The note with it: read-out: IC50 against CEH. In kind it is biochemical.

For the compound `CCCCNC(=O)ON=C(c1ccc(N(C)C)cc1)c1ccccn1` [Example 20], the IC50 is 4600 nM.
Turning to `CCCCNC(=O)ON=c1c2ccccc2oc2ccccc12`, the IC50 was 600 nM.
